Experimental data taken from patent US7531651B2, “Benzenesulphonate salt of a morpholine urea derivative for use as a CCR-3 antagonist in the treatment of inflammatory conditions” (Glaxo Group Limited, priority 2002, dated 2009).

Experiment: Solid form storage stability tests (temperature/humidity/light)
Conditions: 25 days

SMILES: NC(=O)c1ccc(CNC(=O)NC[C@H]2CN(Cc3ccc(Cl)c(Cl)c3)CCO2)cc1.O.O.O=S(=O)(O)c1ccccc1 [compound of the invention, 4-({[({[(2S)-4-(3,4-dichlorobenzyl)morpholin-2-yl]methyl}amino)carbonyl]amino}methyl)benzamide benzenesulfonate dihydrate]
- degradation on storage (solid form) (40° C./20% relative humidity): no significant degradation
- degradation on storage (solid form) (40° C./75% relative humidity): no significant degradation
